Laboratory results published in US6846637B1, “Fas peptides and antibodies for modulating apoptosis” (IMED AB, priority 1998, dated 2005).

Assays:
[1] = tested on: immunoglobulin preparations derived from pooled human serum (Gammagard); assay: ELISA reactivity of immunoglobulin preparations (Gammagard) to Fas peptides; assay type: binding; details: O.D. 490 nm classes
Experimental: (§1) These peptides were used in ELISA of 30 human sera obtained from healthy blood donors and the specificity of the assay was confirmed by peptide competition ELISA as described (Leonov et al., 1994). Peptides Fp5 (Gly40-Val59), Fp11 (Glu100-Cys119), and Fp17 (Trp160-Val179) were selected as positively reacting with human sera and were used in subsequent experiments.
Similar experiments were performed with commercially available immunoglobulin preparations derived from pooled human serum enriched by immunosorbence for immunoglobulin fractions (Gammagard-Baxter, Hyland, Glendale, Calif. USA).

Jurkat leukemia T cells = details: peptide; Fadeel et al., 1995; cited from earlier work
[2] = tested on: antibodies in human sera of healthy blood donors; assay: ELISA reactivity of human serum to Fas peptides; assay type: binding
Source text: The derived amino acid sequence (a.a.1-179) of the Fas protein (Itoh et al., 1991) was used for simultaneous multiple solid-phase peptide synthesis (Houghten et al, 1985) of 20 amino acid long peptides (with a 10-residue overlap).
as §1

Sequence: EINCTRTQNTKCRCKPNFFC [Fp11]
- Reactivity to Fas peptides in ELISA, Immunoglobulin preparations (Gammagard) [1]: +++ (+++ > 1.0 O.D.)
- blocking of the apoptotic activity of CH-11 (Jurkat leukemia T cells): can block
- Reactivity to Fas peptides in ELISA, Human serum ([2]; human serum, O.D. 490 nm classes): +++ (+++ > 1.0 O.D.)
- reactivity with human sera ([2]; sera of 30 healthy blood donors, in words): reactive
